Assay results from PubChem BioAssay AID588814 (The Scripps Research Institute Molecular Screening Center, 2011).
The entries are a selection whose mix differs from that of the whole data set. Activity calls are given as the source filed them.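 The calls were made as follows: active = activation above the run's mean compound activation plus 3 SD (cut at about 16% in these data); inactive = the rest.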

Chains of the proteins cited; added tags and fusions are not shown.
UniProt P11229, whole entry: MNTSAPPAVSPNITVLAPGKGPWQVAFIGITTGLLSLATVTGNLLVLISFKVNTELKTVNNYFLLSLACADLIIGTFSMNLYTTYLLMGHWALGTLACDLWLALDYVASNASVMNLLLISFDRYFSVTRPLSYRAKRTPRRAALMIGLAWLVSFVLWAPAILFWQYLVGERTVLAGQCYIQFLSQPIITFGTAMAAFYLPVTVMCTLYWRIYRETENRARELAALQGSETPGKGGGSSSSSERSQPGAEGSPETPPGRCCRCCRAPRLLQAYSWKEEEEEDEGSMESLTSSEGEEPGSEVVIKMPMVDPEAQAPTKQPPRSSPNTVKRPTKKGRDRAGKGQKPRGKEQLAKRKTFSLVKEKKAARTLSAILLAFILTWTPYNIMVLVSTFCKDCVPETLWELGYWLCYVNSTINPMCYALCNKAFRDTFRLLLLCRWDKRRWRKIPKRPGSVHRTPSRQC

target: Muscarinic acetylcholine receptor M1 (Homo sapiens) (UniProt P11229); experiment: CHRM1 activation via calcium signal – Fluo-8 calcium fluorescence, CHO-K1 cells, HTS, primary screen (AID 588814); conditions: CHO-K1 hM1, Fluo-8 calcium fluorescence, agonist mode; at 3 µM; active compounds read high; 0% DMSO, 100% acetylcholine EC100;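 also: peak over basal fluorescence ratio within a 140 s kinetic read after compound addition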

SMILES	activation
CCN(CC)CC(O)COC(=O)C(O)(c1ccccc1)C1CCCCC1 (centres undefined)	inactive: -3.49%
CP(=O)(Nc1ccccn1)Oc1ccc(Cl)cc1 (centres undefined)	inactive: -5.33%
CCOP(C)(=S)SCC(=O)NC(C)C(=O)O (centres undefined)	inactive: -2.07%
CCOC(=O)c1ccc(NP(C)(=O)Oc2ccc(OC)cc2)cc1 (centres undefined)	inactive: -6.51%
O=[N+]([O-])c1cc([N+](=O)[O-])c(O)c([N+](=O)[O-])c1.c1ccc(Oc2ccncc2)cc1	inactive: -1.62%
Cc1cc(C)cc(OP(C)(=O)Nc2ccc(SC(F)(F)F)cc2)c1 (centres undefined)	inactive: -5.03%
CP(=O)(NC(=O)Nc1ccccc1)Oc1ccccc1 (centres undefined)	inactive: 12.4%
CCc1ccc(OP(C)(=O)N2CCN(c3ccc([N+](=O)[O-])cc3)CC2)cc1 (centres undefined)	inactive: -0.51%
CP(=O)(Oc1ccccc1)OC(c1ccccc1)C(F)(F)F (centres undefined)	inactive: -6.83%
Cc1ccc(Nc2c([N+](=O)[O-])cc([N+](=O)[O-])cc2[N+](=O)[O-])cc1	inactive: -0.38%
Cc1cccc(C)c1OP(C)(=O)Nc1ccc(SC(F)(F)F)cc1 (centres undefined)	inactive: -7.38%
CP(=O)(Nc1ccc(SC(F)(F)F)cc1)Oc1ccc(Cl)cc1 (centres undefined)	inactive: -5.17%
COc1ccccc1OP(C)(=O)Nc1ccccc1 (centres undefined)	inactive: -3.23%
CP(=O)(Nc1ccccc1Br)Oc1ccccc1 (centres undefined)	inactive: -3.62%
CP(=S)(Nn1cnnc1)Oc1ccccc1 (centres undefined)	inactive: 0.89%
CCCCOc1ccc(C(=O)NCC2(N3CCCCC3)CCCCC2)cc1OC	inactive: -9%
COc1ccc(OP(C)(=O)Nc2cccc(F)c2)cc1 (centres undefined)	inactive: -3.61%
COc1ccccc1OP(C)(=O)Nc1cc(Cl)ccc1C (centres undefined)	inactive: -7.08%
Cc1cc(C)cc(OP(C)(N)=O)c1 (centres undefined)	inactive: -3.32%
CCOC(=O)c1ccc(NP(C)(=O)Oc2ccccc2)cc1 (centres undefined)	inactive: 0.07%
Cc1ccc(NP(C)(=O)Oc2ccccc2)c(C)c1 (centres undefined)	inactive: -3%
COc1ccccc1OP(C)(=O)Nc1ccc(C)cc1 (centres undefined)	inactive: -0.99%
Cc1cccc(C)c1OP(C)(N)=O (centres undefined)	inactive: -2.45%
CC(C)(C)c1ccc(OP(C)(=O)Nc2ccc(SC(F)(F)F)cc2)cc1 (centres undefined)	inactive: -9.03%
O=[N+]([O-])c1ccc2c(c1)C=Nc1ccccc1O2	inactive: -5.08%

SMILES	activation
O=[N+]([O-])c1cc([N+](=O)[O-])c(Nc2cccnc2)c([N+](=O)[O-])c1	inactive: 3.32%
COc1cc(C(=O)NCC2(N3CCOCC3)CCCCC2)ccc1OCC(C)C	inactive: -5.56%
CCN(CC)CCCOC(=O)C(O)(c1ccccc1)c1ccccc1	inactive: -6.89%
Cc1cc(C)cc(OP(C)(=O)Nc2ccccn2)c1 (centres undefined)	inactive: -3.01%
CP(=O)(Nc1cccc(Br)c1)Oc1ccccc1 (centres undefined)	inactive: -2.42%
Cc1ccc(C)c(NP(C)(=O)Oc2ccccc2)c1 (centres undefined)	inactive: 7.83%
Cc1cc(C)cc(OP(C)(=O)Nc2ccc(C)cc2C)c1 (centres undefined)	inactive: -6.72%
CCOC(=O)c1ccc(NP(C)(=O)Oc2cc(C)cc(C)c2)cc1 (centres undefined)	inactive: -4.45%
COc1ccccc1OP(C)(=O)Nc1cccc(Br)c1 (centres undefined)	inactive: -2.56%
COc1cc(C(=O)NCC2(N3CCOCC3)CCCCC2)cc(Cl)c1OC(C)C	inactive: -9.07%
CC1=NCCc2c1[nH]c1ccccc21.O=[N+]([O-])c1cc([N+](=O)[O-])c(O)c([N+](=O)[O-])c1	inactive: -5.28%
O=C(O)c1cccc(Nc2c([N+](=O)[O-])cc([N+](=O)[O-])cc2[N+](=O)[O-])c1	inactive: -2.35%
CCCOc1ccc(NP(C)(=O)Oc2ccc(Cl)cc2)cc1 (centres undefined)	inactive: -12.4%
CP(=O)(Nc1ccc(SC(F)(F)F)cc1)Oc1ccccc1 (centres undefined)	inactive: -4.66%
COc1ccccc1OP(C)(=O)Nc1c(C)cccc1C (centres undefined)	inactive: -4.92%
CN1CCCCC1COC(=O)C1(O)c2ccccc2CCc2ccccc21 (centres undefined)	inactive: -12.9%
CCOC(=O)C(CC)C1=NC(C)(C)Cc2ccccc21.O=[N+]([O-])c1cc([N+](=O)[O-])c(O)c([N+](=O)[O-])c1 (centres undefined)	inactive: -4.41%
CN(C)C1(CNC(=O)c2ccc(S(C)(=O)=O)cc2)CCCCC1	inactive: -2.85%
CC1=C2N=C(C=C3N=C(C(C)=C4[N-][C@@](C)([C@@H]5N=C1[C@](C)(CCC(=O)NC[C@@H](C)OP(=O)([O-])O[C@H]1[C@@H](O)[C@@H](n6cnc7cc(C)c(C)cc76)O[C@@H]1CO)[C@H]5CC(N)=O)[C@@](C)(CC(N)=O)[C@@H]4CCC(N)=O)[C@@](C)(CC(N)=O)[C@@H]3CCC(N)=O)C(C)(C)[C@@H]2CCC(N)=O.[C-]#N.[Co+3]	inactive: -1.37%
O=[N+]([O-])c1cc([N+](=O)[O-])c(Nc2nnnn2CCO)c([N+](=O)[O-])c1	inactive: 2.65%
Cc1nc2ccc3ccccc3c2s1.O=[N+]([O-])c1cc([N+](=O)[O-])c(O)c([N+](=O)[O-])c1	inactive: -4.47%
O=[N+]([O-])c1cc([N+](=O)[O-])c(-c2cnn(-c3ccccc3)c2)c([N+](=O)[O-])c1	inactive: -3.24%
CN(Cc1cccnc1)C(=O)COc1ccc(Cl)c(Cl)c1.O=[N+]([O-])c1cc([N+](=O)[O-])c(O)c([N+](=O)[O-])c1	inactive: 1.35%
O=[N+]([O-])c1cc([N+](=O)[O-])c(-n2nnc3ccccc32)c([N+](=O)[O-])c1	inactive: -0.19%
